A selection: hits, their analogues and other compounds. The true share with any hit is near 0.43%.
GIV-Gai inh: inhibitors of GIV GBA-motif binding to rat Galpha-i3. actives 0.42% (n = 210,000). Galpha-i3/FITC-GIV peptide fluorescence polarization, 90 min; active compounds read low; scaled: aluminum fluoride 0%, vehicle 100%. AID 1224905. percent of control (FP), % (no concentration beside the values). P08753;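 active means replicate mean at 85% of control or lower, very high polarization wells dropped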;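 further: wells of about 15 µL received 100 nL stock; the first replicate is given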
HCMV UL50-53 inh: disrupts HCMV UL50-UL53 complex binding; inhibition, % (concentration not given with the values); 190,000 compounds, 0.15% hits; HTRF UL50-UL53 interaction, normalized percent inhibition; in the data active = inhibition above about 27%, passing the limit was not always enough
GIV Gai FP conf: GIV-Galpha-i3 inhibition, FP confirmation; shares compounds with GIV-Gai inh; FITC-GIV peptide binding to Galphai3, fluorescence polarization; active compounds read low; fluorescence polarization, mP at 100 µM; 580 compounds, 38% hits;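 active = inhibition score of 15 or more, meaning 100 minus mean polarization as percent of control over three replicates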;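 note: lower mP means peptide displaced from Galphai3 so more inhibition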
GIV-Gai AS conf: GIV-Galpha-i3 inhibition, AlphaScreen confirmation; 580 compounds, 39% hits; AlphaScreen counts at 100 µM; AlphaScreen Galphai3-GIV binding, purified proteins, 90 min; active compounds read low; shares compounds with GIV-Gai inh;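 active = inhibition score at or above a set limit, where the score is 100 minus the three-replicate mean percent of control signal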
The depositor's hits bear a star.

Start of the listing, in advance:
Screening Cc1ccc(NC(=S)NCC2COc3ccccc3O2)cc1 (stereo not drawn) returned GIV-Gai inh 106 and HCMV UL50-53 inh -9.
For O=c1[nH]c(SCCO)nc2sc3c(c12)CCCC3 the results were HCMV UL50-53 inh 0.

All compounds of this part (from the top)
Screening Cc1ccc(NC(=S)NCC2COc3ccccc3O2)cc1 (stereo not drawn) returned GIV-Gai inh 106 and HCMV UL50-53 inh -9.
For O=c1[nH]c(SCCO)nc2sc3c(c12)CCCC3 the results were HCMV UL50-53 inh 0.
For O=C(O)CC(Sc1nc2sc3c(c2c(=O)[nH]1)CCCC3)C(=O)O (stereo not drawn) the results were GIV-Gai inh 75*, GIV Gai FP conf 52* and GIV-Gai AS conf 16638*.
`CCN1CCN(c2cc(C(=O)O)c3cc(NS(=O)(=O)c4ccc(C)cc4C)ccc3n2)CC1` gave GIV-Gai inh 103 and HCMV UL50-53 inh -56.
CC(C)NC(=O)c1ccccc1CCc1ccccc1 was read as HCMV UL50-53 inh 9.
Screening Cc1cccc(NC(=O)NC(C)c2c(-n3cccc3)sc(C)c2C)c1C (stereo not drawn) returned GIV-Gai inh 89, GIV Gai FP conf 71 and GIV-Gai AS conf 49525.
Cc1ccc(NC(=O)NC(C)c2c(-n3cccc3)sc(C)c2C)cc1F (stereo not drawn) was read as GIV-Gai inh 103 and HCMV UL50-53 inh -29.
`O=C(CSc1nnc(SCC(=O)Nc2cccc([N+](=O)[O-])c2)s1)Nc1cccc([N+](=O)[O-])c1` gave GIV-Gai inh 106.
Screening COC(=O)c1c(C)oc2ccc(N(C(=O)c3ccc(C)cc3)S(=O)(=O)c3ccc(Cl)cc3)cc12 returned GIV-Gai inh 103 and HCMV UL50-53 inh -10.
`NC1=NC2(O)c3ccccc3C(=O)C2(O)NN1` (stereo not drawn) gave GIV-Gai inh 76*, GIV Gai FP conf 54* and GIV-Gai AS conf 44135.
O=C1NC2(O)C(=O)c3ccccc3C2(O)N1 (stereo not drawn) was read as GIV-Gai inh 113.
`COC(=O)c1ccccc1OCCCn1c(-c2ccc(Br)cc2)nc2ccccc2c1=O` gave GIV-Gai inh 112.
CCOC(=O)c1c(CNC(=O)c2ccc(N3CCOCC3)nc2)c(C)n(C2CC2)c1C was read as GIV-Gai inh 108 and HCMV UL50-53 inh -14.
`O=S(=O)(Nc1ccc(O)c(Sc2ncn[nH]2)c1)c1ccccc1` gave GIV-Gai inh 103.
`O=C1C(Sc2ncn[nH]2)=C/C(=N/S(=O)(=O)c2ccc(Cl)cc2)c2ccccc21` gave GIV-Gai inh 8.2*, HCMV UL50-53 inh -8, GIV Gai FP conf 18* and GIV-Gai AS conf 4487*.
Screening O=C(COc1ccc2oc3c(c2c1)CCCC3)Oc1ccc(-c2nnco2)cc1 returned HCMV UL50-53 inh -24.
For COc1ccc(C(=O)N2CCC(Cc3ccccc3)CC2)cc1OC the results were HCMV UL50-53 inh 6.
Screening COC(=O)Cc1c(C)c2cc3c(c(C)c2oc1=O)OCN(CCc1ccc(OC)cc1)C3 returned GIV-Gai inh 98 and HCMV UL50-53 inh -46.
Screening CCc1c(C)c2cc3c(c(C)c2oc1=O)OCN(CCc1ccc(OC)c(OC)c1)C3 returned GIV-Gai inh 83*, HCMV UL50-53 inh -33, GIV Gai FP conf 79 and GIV-Gai AS conf 14061*.
`COC(=O)c1ccc(N=Cc2nc(-c3cc(OC)c(OC)c(OC)c3)oc2O)cc1` gave GIV-Gai inh 95, GIV Gai FP conf 58 and GIV-Gai AS conf 54563.

The list goes on; the last two above are carried over.
Screening CCc1c(C)c2cc3c(c(C)c2oc1=O)OCN(CCc1ccc(OC)c(OC)c1)C3 returned GIV-Gai inh 83*, HCMV UL50-53 inh -33, GIV Gai FP conf 79 and GIV-Gai AS conf 14061*.
`COC(=O)c1ccc(N=Cc2nc(-c3cc(OC)c(OC)c(OC)c3)oc2O)cc1` gave GIV-Gai inh 95, GIV Gai FP conf 58 and GIV-Gai AS conf 54563.
COc1cc(-c2nc(C=Nc3ccc4ccccc4c3)c(O)o2)cc(OC)c1OC was read as GIV-Gai inh 104.
For Nc1cccc2c1C(=O)N(CC(=O)N1CCc3ccccc31)C2=O the results were HCMV UL50-53 inh -10.
Nc1cccc2c1C(=O)N(CCO)C2=O was read as GIV-Gai inh 75*, HCMV UL50-53 inh -65, GIV Gai FP conf 55* and GIV-Gai AS conf 50751.
`CCN(CC)c1ccc(-c2c(C#N)c(N)nc(OC)c2C#N)cc1` gave GIV-Gai inh 31*, HCMV UL50-53 inh -22, GIV Gai FP conf 84 and GIV-Gai AS conf 47104.
CCOc1ccccc1-c1c(C#N)c(N)nc(OC)c1C#N was read as GIV-Gai inh 103 and HCMV UL50-53 inh -13.
`CC(Sc1nc(=O)cc(N)n1CCc1ccccc1)C(=O)Nc1ccc(Cl)cc1` (stereo not drawn) gave GIV-Gai inh 104.
COc1ccc(S(=O)(=O)N2CCN(c3cc(-c4cc(F)ccc4OC)ncn3)CC2)cc1Cl was read as GIV-Gai inh 102 and HCMV UL50-53 inh -41.
`CC1(C)C2([N+](=O)[O-])CN3CC1([N+](=O)[O-])CN(C2)C3c1ccc(O)cc1` (stereo not drawn) gave GIV-Gai inh 128.

Assay outcomes (PubChem BioAssay)
